Measurements from patent US20120263714A1, “SUBSTITUTED HALOPHENOXYBENZAMIDE DERIVATIVES” (BAYER INTELLECTUAL PROPERTY GMBH, priority 2009, published 2012).

Assay: Distribution between blood and plasma, blood/plasma ratio (Assay 7)
Format: in vitro ADME, human
Conditions: statement in text on the blood/plasma data

Compound: NC(=O)c1c(Oc2cccc(CNS(N)(=O)=O)c2)cc(F)c(F)c1Nc1ccc(I)cc1F [Example 1, 3,4-difluoro-2-[(2-fluoro-4-iodophenyl)amino]-6-{3-[(sulfamoylamino)methyl]phenoxy}benzamide]
- accumulation in human blood cells: does not show accumulation in human blood cells
